Source: publication PMC4456413, “Trypanothione Reductase: A Target Protein for a Combined In Vitro and In Silico Screening Approach” (PLoS Neglected Tropical Diseases, 2015)

Protein sequences, listed by entry. Tags and fused reporters are not part of them. Lines headed by an entry give the natural chain unless they say otherwise; changes in a name come on top.
UniProt P28593: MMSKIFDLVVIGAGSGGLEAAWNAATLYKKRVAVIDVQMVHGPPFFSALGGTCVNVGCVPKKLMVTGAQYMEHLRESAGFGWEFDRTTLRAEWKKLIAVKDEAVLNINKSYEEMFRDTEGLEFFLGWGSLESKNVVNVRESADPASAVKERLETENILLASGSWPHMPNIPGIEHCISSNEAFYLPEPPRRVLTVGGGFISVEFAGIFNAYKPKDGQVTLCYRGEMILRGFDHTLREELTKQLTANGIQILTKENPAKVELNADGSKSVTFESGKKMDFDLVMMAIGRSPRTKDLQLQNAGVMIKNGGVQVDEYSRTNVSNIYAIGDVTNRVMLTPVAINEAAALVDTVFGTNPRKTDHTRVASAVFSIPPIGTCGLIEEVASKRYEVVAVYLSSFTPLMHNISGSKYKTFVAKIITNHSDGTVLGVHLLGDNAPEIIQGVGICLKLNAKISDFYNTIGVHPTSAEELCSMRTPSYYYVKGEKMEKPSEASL

Biological target: T1, T. cruzi TR (Trypanosoma cruzi, UniProt P28593)
T1 construct: made in house
Assay type: biochemical
Conditions: Ki and IC50 on TR versus chlorhexidine
Method: The compounds used in the enzymatic inhibitory testing and the in silico screening were available as stock solutions in DMSO or in solid from a compound library maintained at MSD. All IC50 determinations were performed starting from solid material. Recombinant T. cruzi TR (CL strain) was prepared using a published expression system. TS2 was prepared enzymatically as described previously. For antiparasitic studies, culture-adapted bloodstream T. brucei parasites of cell line 449 were used. These cells are descendants of strain Lister 427 stably transfected with the gene for the tetracycline repressor.
The kinetic analysis of TR was performed in 384-well plates (Greiner Bio-One GmbH, Frickenhausen, Germany). The reaction mixture (50 μl) contained 5 mU/ml TR, 40 mM Hepes, pH 7.5, 1 mM EDTA, 300 μM NADPH (Sigma-Aldrich), 0.1 mg/ml BSA, and 0.01% Pluronic (BASF). […] The absorption decrease at 340 nm was measured by start and end point determination resulting in a delta of the optical density (delta A) for 30 min. […]
Eleven compound concentrations were used ranging from 100–0.01 μM or 200–0.004 μM. […] IC50 values were calculated using the four-parameter equation model 205 and the option “unlock” from the XLfit add-in (IDBS, Guildford, United Kingdom) in Excel (Microsoft Corporation, Redmond, WA). […]

on target activity (Ki and IC50) times better compared to chlorhexidine: 10–20 times
SMILES: O=C(Nc1ccccc1)OCCSc1ccc([N+](=O)[O-])c2nonc12 [Compound 1]
